Data reported in ChEMBL document CHEMBL3400114, “The design, synthesis and biological evaluation of conformationally restricted 4-substituted-2,6-dimethylfuro[2,3-d]pyrimidines as multi-targeted receptor tyrosine kinase and microtubule inhibitors as potential antitumor agents” (Bioorg Med Chem, 2015).

Test: Antiproliferative activity against human SKOV3-MDR1-M6/6 cells overexpressing wild type beta3 tubulin after 48 hrs by sulforhodamine B assay
Assay type: functional, cell-based
Conditions: SKOV3-MDR1-M6/6, 48 h

Q: For CC(=O)O[C@H]1C(=O)[C@@]2(C)[C@H]([C@H](OC(=O)c3ccccc3)[C@]3(O)C[C@H](OC(=O)[C@H](O)[C@@H](NC(=O)c4ccccc4)c4ccccc4)C(C)=C1C3(C)C)[C@]1(OC(C)=O)CO[C@@H]1C[C@@H]2O [PACLITAXEL], which IC50 is on record?
A: The IC50 was 1190 nM.
